Experimental data taken from patent US10098962B2, “Glycosaminoglycan derivative and method for producing same” (Seikagaku Corporation, priority 2013, dated 2018).

Experiments:
[1] = Release test for conjugates obtained from Examples 15 to 17 (Test Example A4); assay type: physicochemical; conditions: 0.1% in 20 mM sodium phosphate buffer pH 7.0, 36°C
Source text: (§1) The amount of the dissociated diclofenac component which is present in an initial state (storage: Day 0) immediately after the dissolution, and the amount of diclofenac ester which has been forced to dissociate by using a base were subjected to quantitative analysis based on ODS-HPLC. […] From the ratio between the obtained amount of the dissociated diclofenac component at each time point and the amount of dissociated diclofenac component resulting from forced dissociation, the dissociation ratio (%) was calculated. For a pre-treatment of a HPLC sample, OASIS HLB was used, and a fraction eluted by acetonitrile was analyzed. HPLC conditions are as follows. column: […] flow rate: 1 mL/min temperature: 35° C.

[2] = Release test for conjugates obtained from Examples 22 to 25 (Test Example A6); assay type: physicochemical; conditions: 0.1% in 20 mM sodium phosphate buffer pH 7.0, 36°C
Source text: as §1

[3] = Release test for conjugates obtained from Examples 18 to 21 (Test Example A5); assay type: physicochemical; conditions: 0.1% in 20 mM sodium phosphate buffer pH 7.0, 36°C
Source text: The amount of the dissociated diclofenac component which is present in an initial state (storage: Day 0) immediately after the dissolution, and the amount of diclofenac ester which has been forced to dissociate by using a base were subjected to quantitative analysis based on ODS-HPLC. […] From the ratio between the obtained amount of the dissociated diclofenac component at each time point and the amount of dissociated diclofenac component resulting from forced dissociation, the dissociation ratio (%) was calculated. For a pre-treatment of a HPLC sample, OASIS HLB was used, and a fraction eluted by acetonitrile was analyzed. HPLC conditions are as follows. column: […] temperature: 35° C.

[4] = Release test for conjugates obtained from Examples 26 to 28, citrate buffer pH 5.1 (Test Example A7); assay type: physicochemical
Procedure: The amount of the dissociated diclofenac component which is present in a solution in an initial state (storage: Day 0) immediately after the dissolution was subjected to quantitative analysis based on ODS-HPLC. […] Meanwhile, the method for pre-treatment of HPLC sample is described below. Methanol (1 mL) was added to the stored solution (1 g). After dilution and addition of acetonitrile to 20 mL, the hyaluronic acid component was allowed to precipitate. The obtained supernatant was used as a HPLC sample. HPLC conditions are as follows. column: […] flow rate: 1 mL/min temperature: 35° C.

[5] = Release test for conjugates obtained from Examples 26 and 32 at 60, 40, 25°C (Test Example A9); assay type: physicochemical
Procedure: The amount of the dissociated diclofenac component which is present in a solution in an initial state (storage: Day 0) immediately after the dissolution was subjected to quantitative analysis based on ODS-HPLC. Other aliquot was stored at 60° C., 40° C., or 25° C. immediately after the dissolution, the decomposition amount of diclofenac ester was similarly subjected to quantitative analysis after lapse of the each designated time. From the ratio between the obtained amount of the dissociated diclofenac component at each time point and the amount of dissociated diclofenac component resulting from forced dissociation, the dissociation ratio (%) was calculated. For a pre-treatment of a HPLC sample, OASIS HLB was used, and a fraction eluted by acetonitrile was analyzed. HPLC conditions are as follows. column: […] flow rate: 1 mL/min temperature: 35° C.

Substance | drug dissociation ratio (pH7.4, 36°C, day 0) [%] | drug dissociation ratio (pH7.4, 36°C, day 1) [%] | drug dissociation ratio (pH7.4, 36°C, day 2) [%] | drug dissociation ratio (pH7.4, 36°C, day 3) [%] | drug dissociation ratio (pH7.4, 36°C, day 4) [%] | drug dissociation ratio (pH7.4, 36°C, day 5) [%] | drug dissociation ratio (pH7.4, 36°C, day 6) [%] | drug dissociation ratio (pH7.4, 36°C, day 7) [%] | drug dissociation ratio (pH8.0, 36°C, day 0) [%] | drug dissociation ratio (pH8.0, 36°C, day 1) [%] | drug dissociation ratio (pH8.0, 36°C, day 2) [%] | drug dissociation ratio (pH8.0, 36°C, day 3) [%] | drug dissociation ratio (pH8.0, 36°C, day 4) [%] | drug dissociation ratio (pH8.0, 36°C, day 5) [%] | drug dissociation ratio (pH8.0, 36°C, day 6) [%] | drug dissociation ratio (pH8.0, 36°C, day 7) [%] | further results
diclofenac (1-amino-2-propanol)-chondroitin sulfate [Example A4-1] | – | – | – | – | – | – | – | – | – | – | – | – | – | – | – | – | diclofenac dissociation ratio ([1]; day 0): 0.0%; diclofenac dissociation ratio ([1]; day 1): 0.7%; diclofenac dissociation ratio ([1]; day 2): 1.1%; diclofenac dissociation ratio ([1]; day 4): 1.8%; diclofenac dissociation ratio ([1]; day 8): 3.0%
21-isoleucyl-betamethasone Introduced chondroitin sulfate [Compound 31-3] | 0.5 | 0.2 | 0.2 | 0.2 | 1.5 | 2.1 | 1.9 | 0.6 | 0.0 | 0.5 | 0.7 | 1.1 | 2.8 | 3.8 | 4.3 | 2.8 | –
21-glycyl-betamethasone Introduced chondroitin sulfate [Compound 30-3] | 1.1 | 5.7 | 9.3 | 11.0 | 15.4 | 19.6 | 22.1 | 22.0 | 4.3 | 14.4 | 23.5 | 29.3 | 37.8 | 44.7 | 48.7 | 50.6 | –
diclofenac (1-amino-2-butanol)-hyaluronic acid [Example A6-2] | – | – | – | – | – | – | – | – | – | – | – | – | – | – | – | – | diclofenac dissociation ratio ([2]; day 0): 0.0%; diclofenac dissociation ratio ([2]; day 1): 0.6%; diclofenac dissociation ratio ([2]; day 2): 1.2%; diclofenac dissociation ratio ([2]; day 4): 2.2%; diclofenac dissociation ratio ([2]; day 8): 4.5%
diclofenac (1-amino-2-butanol)-chondroitin sulfate [Example A5-2] | – | – | – | – | – | – | – | – | – | – | – | – | – | – | – | – | diclofenac dissociation ratio ([3]; day 0): 0.0%; diclofenac dissociation ratio ([3]; day 1): 0.1%; diclofenac dissociation ratio ([3]; day 2): 0.3%; diclofenac dissociation ratio ([3]; day 4): 0.6%; diclofenac dissociation ratio ([3]; day 8): 1.0%
21-alanyl-betamethasone Introduced chondroitin sulfate [Compound 29-3] | 0.4 | 2.0 | 3.6 | 5.3 | 8.7 | 11.0 | 12.2 | 11.5 | 1.7 | 6.3 | 10.9 | 16.1 | 21.7 | 26.1 | 28.3 | 29.3 | –
Diclofenac(1-amino-2-propanol)-hyaluronic acid | – | – | – | – | – | – | – | – | – | – | – | – | – | – | – | – | Content of dissociated diclofenac (w/w %) ([4]; 1% in sodium citrate buffer pH 5.1, 40°C, after 4 weeks): 0.00 w/w %; Content of dissociated diclofenac (w/w %) ([4]; 1% in sodium citrate buffer pH 5.1, immediately after dissolution): 0.00 w/w %; diclofenac dissociation ratio ([5]; 1% in sodium citrate buffer pH 5.1, 25°C, 0 y (year)): 0.0%; diclofenac dissociation ratio ([5]; 1% in sodium citrate buffer pH 5.1, 25°C, 0.5 y (year)): 1.4%; diclofenac dissociation ratio ([5]; 1% in sodium citrate buffer pH 5.1, 25°C, 1 y (year)): 2.7%; diclofenac dissociation ratio ([5]; 1% in sodium citrate buffer pH 5.1, 40°C, 0 m (month)): 0.0%; diclofenac dissociation ratio ([5]; 1% in sodium citrate buffer pH 5.1, 40°C, 4 m (month)): 3.5%; diclofenac dissociation ratio ([5]; 1% in sodium citrate buffer pH 5.1, 40°C, 6 m (month)): 5.2%; diclofenac dissociation ratio ([5]; 1% in sodium citrate buffer pH 5.1, 40°C, 9 m (month)): 7.4%; diclofenac dissociation ratio ([5]; 1% in sodium citrate buffer pH 5.1, 40°C, 12 m (month)): 9.3%; diclofenac dissociation ratio ([5]; 1% in sodium citrate buffer pH 5.1, 60°C, day 0): 0.0%; diclofenac dissociation ratio ([5]; 1% in sodium citrate buffer pH 5.1, 60°C, day 7): 1.9%; diclofenac dissociation ratio ([5]; 1% in sodium citrate buffer pH 5.1, 60°C, day 14): 3.3%; diclofenac dissociation ratio ([5]; 1% in sodium citrate buffer pH 5.1, 60°C, day 21): 4.6%

Like-named read-outs stand apart in the source and are kept apart here.
